Results taken from US20040039014A1, “Methods and compounds for treating depression and other disorders” (NPS Pharmaceuticals, Inc., priority 1998, published 2004).

By UniProt entry, the sequences of proteins in these tests, tags left out. Residues count along the entry.
UniProt Q63380, 1-617: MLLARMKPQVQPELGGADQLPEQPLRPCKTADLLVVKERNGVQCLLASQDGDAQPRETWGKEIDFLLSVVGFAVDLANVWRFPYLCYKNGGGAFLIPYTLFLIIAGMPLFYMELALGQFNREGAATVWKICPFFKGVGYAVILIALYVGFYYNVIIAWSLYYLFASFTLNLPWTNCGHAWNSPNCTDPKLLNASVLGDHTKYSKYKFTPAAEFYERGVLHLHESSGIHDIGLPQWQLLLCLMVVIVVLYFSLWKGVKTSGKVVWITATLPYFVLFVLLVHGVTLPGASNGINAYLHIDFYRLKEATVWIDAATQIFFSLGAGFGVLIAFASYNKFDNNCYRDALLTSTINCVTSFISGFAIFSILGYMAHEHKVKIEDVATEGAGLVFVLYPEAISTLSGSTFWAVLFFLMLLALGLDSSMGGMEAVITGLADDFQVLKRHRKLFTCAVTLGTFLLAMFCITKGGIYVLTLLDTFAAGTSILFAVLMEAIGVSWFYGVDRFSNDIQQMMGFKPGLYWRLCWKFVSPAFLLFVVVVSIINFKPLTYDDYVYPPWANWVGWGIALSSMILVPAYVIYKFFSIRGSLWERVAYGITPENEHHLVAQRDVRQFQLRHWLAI
UniProt P31652, whole entry: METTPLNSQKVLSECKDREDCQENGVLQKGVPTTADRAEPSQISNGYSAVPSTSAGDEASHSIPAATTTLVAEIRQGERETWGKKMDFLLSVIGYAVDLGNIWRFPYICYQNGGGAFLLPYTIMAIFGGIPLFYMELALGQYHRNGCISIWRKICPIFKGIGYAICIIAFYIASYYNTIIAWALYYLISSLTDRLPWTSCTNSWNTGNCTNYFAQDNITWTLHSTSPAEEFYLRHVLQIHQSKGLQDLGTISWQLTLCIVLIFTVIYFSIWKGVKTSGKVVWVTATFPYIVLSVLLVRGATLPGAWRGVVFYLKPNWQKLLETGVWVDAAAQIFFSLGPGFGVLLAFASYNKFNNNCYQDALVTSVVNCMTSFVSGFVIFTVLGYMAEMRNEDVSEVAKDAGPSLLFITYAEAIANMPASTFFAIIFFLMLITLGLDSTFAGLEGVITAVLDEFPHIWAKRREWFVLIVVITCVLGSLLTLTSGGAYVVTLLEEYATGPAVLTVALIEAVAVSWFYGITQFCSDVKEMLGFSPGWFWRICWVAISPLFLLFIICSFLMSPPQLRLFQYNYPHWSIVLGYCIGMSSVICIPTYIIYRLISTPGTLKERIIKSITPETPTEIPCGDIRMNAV

Key:
[1] = target: T1, norepinephrine transporter site (Rattus norvegicus, UniProt Q63380); experiment: Norepinephrine reuptake inhibition assay ([3H]nisoxetine binding, rat forebrain membranes); conditions: read-out: NE Uptake Ki
T1 construct: Rat forebrain membranes were incubated with 1.0 nM; tissue NovaScreen (performed the assay); host or cells: rat forebrain membranes

[2] = target: T2, serotonin transporter site (Rattus norvegicus, UniProt P31652); experiment: Serotonin reuptake inhibition assay ([3H]citalopram binding, rat forebrain membranes); conditions: Table II, read-out: 5-HT Uptake mean % inhibition
T2 construct: Rat forebrain membranes were incubated with 0.7 nM; tissue NovaScreen (performed the assay); host or cells: rat forebrain membranes

SMILES	Ki [1] [nM]	inhibition at 0.1 µM ([2]; @ 100 nM (top number)) [%]	inhibition at 10 µM ([2]; @ 10.0 μM (bottom number)) [%]
NCC[C@@H](Oc1cccc(F)c1)c1ccccc1 [Compound 185, (R)-3-(3-Fluorophenoxy)-3-phenylpropylamine]	858	–	–
NCC[C@H](Oc1cccc(F)c1)c1ccccc1 [Compound 186]	136	–	–
Fc1ccc([C@@H]2CCNC[C@H]2COc2ccc3c(c2)OCO3)cc1 [Paroxetine, reference compound]	–	> 80	98
